According to US20230257351A1, “SUBSTITUTED N-PHENYLACETAMIDES HAVING P2X4 RECEPTOR ANTAGONISTIC ACTIVITY” (Bayer Aktiengesellschaft, priority 2020, published 2023):

Target: T1, human P2X4 (Homo sapiens, UniProt Q99571)
T1 construct: expressed in transfected cells
T1 sequence (Q99571 1-388): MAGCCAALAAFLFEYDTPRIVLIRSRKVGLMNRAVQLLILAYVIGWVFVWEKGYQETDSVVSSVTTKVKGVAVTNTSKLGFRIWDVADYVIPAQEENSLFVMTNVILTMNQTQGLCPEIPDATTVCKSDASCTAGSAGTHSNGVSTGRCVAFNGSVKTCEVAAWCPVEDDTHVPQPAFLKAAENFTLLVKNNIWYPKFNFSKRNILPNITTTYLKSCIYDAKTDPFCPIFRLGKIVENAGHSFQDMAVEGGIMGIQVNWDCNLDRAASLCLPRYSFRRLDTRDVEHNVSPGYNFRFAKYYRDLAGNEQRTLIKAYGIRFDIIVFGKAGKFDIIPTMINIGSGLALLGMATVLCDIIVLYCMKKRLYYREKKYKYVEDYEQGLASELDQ
Assay: Human P2X4 HEK Cell FLIPR Assay
Format: cell-based
Details: HEK293 stably expressing human P2X4; agonist Bz-ATP 3 μM (EC80); read-out: Human P2X4 HEK Cells (FLIPR Assay) avg IC50
Description: Compounds were tested on a HEK293 cell line stably expressing human P2X4. Cells were cultured on poly-D-lysine-coated 384-well plates at a density of 15,000 cells/well and incubated overnight at 37° C., 5% CO2. P2X4 function was assessed by measuring intracellular calcium fluxes caused by Benzoylbenzoyl-ATP (Bz-ATP) using the calcium-chelating dye Fluo8-AM (Molecular Devices) with the Fluorescent Imaging Plate Reader Tetra (FLIPR^Tetra; Molecular Devices CA). On the day of the assay, the medium was removed and the cells were incubated for 30 min at 37° C. and 5% CO2 in 30 μl of dye buffer (Hank's balanced salt solution, 10 mM HEPES, 1.8 mM CaCl2, 1 mM MgCl2, 2 mM probenecid, 5 mM D-glucose monohydrate, 5 μM Fluo8-AM, pH=7.4). Compounds diluted in probenecid buffer (Hank's balanced salt solution, 10 mM HEPES, 1.8 mM CaCl2, 1 mM MgCl2, 2 mM probenecid, 5 mM D-glucose monohydrate, pH=7.4) at ten concentrations ranging from 25 μM to 1 nM (final concentration) were dispensed and incubated for 30 min at room temperature. The agonist, Bz-ATP (Tocris Bio-Techne GmbH, DE), was added at a final concentration of 3 μM, representing the EC80 routinely determined. The final assay volume was 50 μl and final DMSO concentration was 0.5%.
The fluorescence intensity reflecting intracellular calcium changes was recorded before and after Bz-ATP addition, at an excitation and emission wavelengths of 470-495 nm and 515-575 nm respectively.
The compounds were tested in triplicates and fluorescence intensity raw data normalized to the agonist control and fitted to the four-parameter logistic equation:
Y=Bottom+(Top−Bottom)/(1+10^((Log IC50−X)*HillSlope))
The efficacy of saturating concentrations of the agonist BzATP (3 μM) was set as maximal response (100% Emax) and the bottom defined by the signal achieved with 0.5% DMSO.
Assay plate acceptance was based on the signal window (S/B)[…] and the reference compound pIC50 within ±3σ the mean of historic pIC50 of the compound. Failure to meet two of the three criteria determined exclusion of the plate's results.

Structure (SMILES)	IC50 [nM]
CC(=O)N(c1ccc(C#N)c(C(F)(F)F)c1)c1cc(NC(=O)Cc2ccccc2Cl)ccn1 [Example 10, N-{4-[2-(2-chlorophenyl)acetamido]pyridin-2-yl}-N-[4-cyano-3-(trifluoromethyl)phenyl]acetamide]	875
CC(=O)N(c1ccc(C#N)c(C(F)(F)F)c1)c1cc(NC(=O)Cc2cccc(F)c2Cl)ccn1 [Example 11, N-{4-[2-(2-chloro-3-fluorophenyl)acetamido]pyridin-2-yl}-N-[4-cyano-3-(trifluoromethyl)phenyl]acetamide]	977
CC(=O)N(c1ccc(C#N)c(C(F)(F)F)c1)c1cc(NC(=O)Cc2c(Cl)cccc2Cl)ccn1 [Example 12, N-[4-cyano-3-(trifluoromethyl)phenyl]-N-{4-[2-(2,6-dichlorophenyl)acetamido]pyridin-2-yl}acetamide]	973
